Measured values reported in patent US20200199527A1, “METHODS OF MATURATION OF HUMAN SPERMATOGONIUM” (B.G. Negev Technologies & Applications Ltd., at Ben-Gurion …, priority 2017, published 2020).

Tests used:
[1] = test system: cells from the seminiferous tubules of busulfan-treated immature (7-day-old) ICR mice; assay: Effect of FSH on spermatogenesis in vitro in MCS, cells from busulfan-treated mice (mimicking azoospermic syndrome); format: cell-based, mouse; conditions: FSH 25 U/ml from the beginning of the culture; cells from busulfan (45 mg/kg)-treated mice; four weeks
Protocol: (§1) Briefly, cells were cultured (2×10^5 cells/well/500 μl) in MEM medium which contained sodium bicarbonate 7.5%, L-glutamine 200 mM, non-essential amino acids 1%, penicillin/streptomycin and gentamicin 10 mg/ml, and were incubated over 2 nights in 24 wells plate at 37° C., 5% CO2. The nonadherent cells were collected and cultured ([…] cells/well/500 μl) in methylcellulose (42%; R&D, Minneapolis, USA) [as a three-dimension (3D) culture system], which contained the StemPro-34 medium (Gibco, USA) enriched with: 10% KSR (knockout serum replacement, Gibco, USA) and the following growth factors: Glial cell-derived neurotrophic factor (GDNF; 10 ng/ml; Biolegend), Leukemia inhibitory factor (LIF; 10 ng/ml; Biolegend), epidermal growth factors (EGF; 20 ng/ml; Biolegend, CA, USA), bFGF (basic fibroblast growth factor) (10 ng/ml; Biolegend).
After two weeks of culture, various concentrations of testosterone (T) such as 10^−8 M, 10^−7 M or 10^−6 M (as shown in FIG. 8A), or retinoic acid (“RA”, such as 10^−8 M, 10^−7 M or 10^−6 M as shown in FIG. 8C) were added to the cultures. After additional two weeks of culture (total culture of four weeks) cells were collected from the in vitro culture system, and examined for different markers of spermatogenesis: pre-meiotic markers such as: VASA, CD9, meiotic markers such as: CREM and BOULE and post-meiotic markers such as ACROSIN by qPCR analysis. […]

[2] = test system: cells isolated from seminiferous tubules of ICR immature (7-day-old) mice; assay: Effect of hormones and retinoic acid on development of mouse spermatogenesis in vitro in methylcellulose culture system (qPCR of markers); format: cell-based; conditions: FSH 25 U/ml from the beginning of the culture, cells from normal mice, 4 weeks
Protocol: Cells were enzymatically isolated from seminiferous tubules of ICR mice (which were developed by the Institute of Cancer Research, also called CD-1) immature mice (7-day-old mice). These cells were cultured in vitro in methylcellulose culture system essentially as described in the “General Materials and Experimental Methods” section above, with some modifications to the culture medium as described below.
as §1
Cells were cultured for 4 weeks. […]

FSH: a gonadotropin, a glycoprotein polypeptide hormone
expression of the meiotic marker CREM [1]: significantly increased | expression of the meiotic/post-meiotic marker ACROSIN [1]: significantly increased | expression of the meiotic marker CREM [2]: increased | expression of the meiotic/post-meiotic marker ACROSIN [2]: increased
